Source: patent US6815425B1, “Pharmaceutical composition containing pGLU-GLU-PRO-NH2 and method for treating diseases and injuries to the brain, spinal cord and retina using same” (The United States of America as represented by the …, priority 1999, dated 2004)

System: rabbit retinal neurons

Substance: pGLU-GLU-PRO-NH2 [EEP]
- survival of neurons (viability relative to controls): 58.7 t: 7.9%
